Reference: EP4837910A1, “ISOXAZOLINE COMPOUND AND PREPARATION METHOD THEREFOR, HERBICIDAL COMPOSITION, AND USE” (dated 2026)

How the values were obtained:
[1] = system: Monocotyledonous and dicotyledonous weed; assay: Pre-emergence test on weeds (greenhouse, sprayed immediately after sowing); settings: fresh weight control rate; for activity level of plant damage (growth control rate), Descurainia sophia / activity level of plant damage (growth control rate), Digitaria sanguinalis / activity level of plant damage (growth control rate), Lolium multiflorum / activity level of plant damage (growth control rate), Setaria viridis: after 4 weeks in greenhouse; for activity level of plant damage (growth control rate), Zea mays: crop Zea mays
Source text: (§1) The criteria for activity levels of plant damage (i.e., growth control rate) are as follows: • Level 9: completely dead; • Level 8: growth control rate greater than or equal to 90% and less than 100%; • Level 7: growth control rate greater than or equal to 80% and less than 90%; • Level 6: growth control rate greater than or equal to 70% and less than 80%; • Level 5: growth control rate greater than or equal to 50% and less than 70%; • Level 4: growth control rate greater than or equal to 30% and less than 50%; • Level 3: growth control rate greater than or equal to 20% and less than 30%; • Level 2: growth control rate greater than or equal to 10% and less than 20%; • Level 1: growth control rate less than 10%; • Level 0: no effect.
(§2) The above growth control rates are fresh weight control rates.
Monocotyledonous and dicotyledonous weed seeds as well as major crop seeds were placed in plastic pots filled with soil and then covered with 0.5-2 cm of soil. The test compounds of the present invention were individually dissolved with acetone, then added with Tween® 80, diluted with certain amount of water to obtain solutions of certain concentrations, and sprayed immediately after sowing. After drug application, the experimental results on weeds were observed after 4 weeks of cultivation in a greenhouse. Table 3 Results of pre-emergence test on weeds

[2] = system: Monocotyledonous and dicotyledonous weed; assay: Post-emergence test on weeds (greenhouse, spray tower); settings: after 3 weeks of cultivation in a greenhouse, fresh weight control rate
Source text: as §1, §2
Monocotyledonous and dicotyledonous weed seeds as well as major crop seeds were placed in plastic pots filled with soil and then covered with 0.5-2 cm of soil to allow them grow in a favorable greenhouse environment. Two weeks after sowing, the test plants were treated. The test compounds of the present invention were individually dissolved with acetone, then added with Tween® 80 and the emulsifiable concentrate of methyl oleate as a synergist, diluted with certain amount of water to obtain solutions of certain concentrations, and sprayed to the plants using a spray tower. After drug application, the experimental results on weeds were collected after 3 weeks of cultivation in a greenhouse. Table 2 Results of post-emergence test on weeds

[3] = Descurainia sophia, Dosage 240 g a.i./ha
[4] = Digitaria sanguinalis, Dosage 240 g a.i./ha
[5] = Setaria viridis, Dosage 240 g a.i./ha
[6] = sprayed immediately after sowing, 240 g a.i./ha, observed after 4 weeks in greenhouse

C=C(C)[C@]1(C(=O)N[C@@H](C)C(=O)NOCCCC)CC(c2cc(F)cc(F)c2)=NO1
activity level of plant damage (growth control rate), Descurainia sophia [1, 3]: 6 (Level 6: growth control rate greater than or equal to 70% and less than 80%)
activity level of plant damage (growth control rate), Digitaria sanguinalis [1, 4]: 9
activity level of plant damage (growth control rate), Lolium multiflorum ([1]; Dosage 240 g a.i./ha): 9
activity level of plant damage (growth control rate), Setaria viridis [1, 5]: 9
Digitaria sanguinalis, activity level of plant damage (growth control rate) ([2]; Dosage 60 g a.i./ha): 9
Echinochloa crus-galli, activity level of plant damage (growth control rate) ([2]; Dosage 60 g a.i./ha): 8 (Level 8: growth control rate greater than or equal to 90% and less than 100%)

C=C[C@@]1(C(=O)N[C@@H](C)C(=O)N(C)OC)CC(c2cc(C(F)(F)F)cc(C(F)(F)F)c2)=NO1
activity level of plant damage (growth control rate), Setaria viridis [1, 5]: 5 (Level 5: growth control rate greater than or equal to 50% and less than 70%)

C=C(C)[C@]1(C(=O)N[C@@H](C)C(=O)NOCCCc2ccccc2)CC(c2cc(F)cc(F)c2)=NO1
activity level (growth control rate), Digitaria sanguinalis ([1]; Digitaria sanguinalis, sprayed immediately after sowing, 240 g a.i./ha, observed after 4 weeks in greenhouse): 8 (Level 8: growth control rate greater than or equal to 90% and less than 100%)
activity level (growth control rate), Setaria viridis ([1]; Setaria viridis, sprayed immediately after sowing, 240 g a.i./ha, observed after 4 weeks in greenhouse): 8 (Level 8: growth control rate greater than or equal to 90% and less than 100%)
Amaranthus retroflexus, activity level of plant damage (growth control rate) ([2]; Dosage 60 g a.i./ha): 6 (Level 6: growth control rate greater than or equal to 70% and less than 80%)
Digitaria sanguinalis, activity level of plant damage (growth control rate) ([2]; Dosage 60 g a.i./ha): 8 (Level 8: growth control rate greater than or equal to 90% and less than 100%)
Echinochloa crus-galli, activity level of plant damage (growth control rate) ([2]; Dosage 60 g a.i./ha): 8 (Level 8: growth control rate greater than or equal to 90% and less than 100%)

C=C(C)[C@]1(C(=O)N[C@@H](C)C(=O)N2CCCO2)CC(c2cc(F)cc(F)c2)=NO1
activity level of plant damage (growth control rate), Descurainia sophia [1, 3]: 9
activity level of plant damage (growth control rate), Digitaria sanguinalis [1, 4]: 9
activity level of plant damage (growth control rate), Lolium multiflorum ([1]; Dosage 240 g a.i./ha): 9
activity level of plant damage (growth control rate), Setaria viridis [1, 5]: 9
Digitaria sanguinalis, activity level of plant damage (growth control rate) ([2]; Dosage 60 g a.i./ha): 8 (Level 8: growth control rate greater than or equal to 90% and less than 100%)
Echinochloa crus-galli, activity level of plant damage (growth control rate) ([2]; Dosage 60 g a.i./ha): 6 (Level 6: growth control rate greater than or equal to 70% and less than 80%)

C=C(C)[C@]1(C(=O)N[C@@H](C)C(=O)N2CCCCO2)CC(c2cc(Cl)cc(Cl)c2)=NO1
activity level of plant damage (growth control rate), Digitaria sanguinalis [1, 4]: 9
activity level of plant damage (growth control rate), Setaria viridis [1, 5]: 9
Amaranthus retroflexus, activity level of plant damage (growth control rate) ([2]; Dosage 60 g a.i./ha): 8 (Level 8: growth control rate greater than or equal to 90% and less than 100%)
Digitaria sanguinalis, activity level of plant damage (growth control rate) ([2]; Dosage 60 g a.i./ha): 9
Echinochloa crus-galli, activity level of plant damage (growth control rate) ([2]; Dosage 60 g a.i./ha): 8 (Level 8: growth control rate greater than or equal to 90% and less than 100%)

CCON(C)C(=O)[C@H](C)NC(=O)[C@@]1(CC)CC(c2cc(F)cc(F)c2)=NO1
activity level of plant damage (growth control rate), Digitaria sanguinalis [1, 4]: 9
activity level of plant damage (growth control rate), Lolium multiflorum ([1]; Dosage 240 g a.i./ha): 9
activity level of plant damage (growth control rate), Setaria viridis [1, 5]: 9

C=CC1(C(=O)N[C@H](C)C(=O)N(C)OC)CC(c2cccc(C)n2)=NO1 (stereo partly shown)
activity level of plant damage (growth control rate), Digitaria sanguinalis [1, 4]: 8 (Level 8: growth control rate greater than or equal to 90% and less than 100%)
activity level of plant damage (growth control rate), Lolium multiflorum ([1]; Dosage 240 g a.i./ha): 9
activity level of plant damage (growth control rate), Setaria viridis [1, 5]: 8 (Level 8: growth control rate greater than or equal to 90% and less than 100%)

C=C(C)[C@]1(C(=O)N[C@@H](C)C(=O)NOCCCCC)CC(c2cc(F)cc(F)c2)=NO1
activity level of plant damage (growth control rate), Descurainia sophia [1, 3]: 5 (Level 5: growth control rate greater than or equal to 50% and less than 70%)
activity level of plant damage (growth control rate), Digitaria sanguinalis [1, 4]: 9
activity level of plant damage (growth control rate), Lolium multiflorum ([1]; Dosage 240 g a.i./ha): 9
activity level of plant damage (growth control rate), Setaria viridis [1, 5]: 9
Digitaria sanguinalis, activity level of plant damage (growth control rate) ([2]; Dosage 60 g a.i./ha): 9
Echinochloa crus-galli, activity level of plant damage (growth control rate) ([2]; Dosage 60 g a.i./ha): 9

C=CC1(C(=O)NCC(=O)N(C)OC)CC(c2cc(F)cc(F)c2)=NO1 (stereo not shown)
activity level of plant damage (growth control rate), Digitaria sanguinalis ([1]; Digitaria sanguinalis, Dosage 250 g a.i./ha): 9
activity level of plant damage (growth control rate), Lolium multiflorum ([1]; Dosage 250 g a.i./ha): 9
activity level of plant damage (growth control rate), Setaria viridis ([1]; Setaria viridis, Dosage 250 g a.i./ha): 9

C=C[C@]1(C(=O)NCC(=O)N(C)OC)CC(c2cc(F)cc(F)c2)=NO1
activity level of plant damage (growth control rate), Descurainia sophia [1, 3]: 9
activity level of plant damage (growth control rate), Digitaria sanguinalis [1, 4]: 6 (Level 6: growth control rate greater than or equal to 70% and less than 80%)
activity level of plant damage (growth control rate), Lolium multiflorum ([1]; Dosage 240 g a.i./ha): 9
activity level of plant damage (growth control rate), Setaria viridis [1, 5]: 6 (Level 6: growth control rate greater than or equal to 70% and less than 80%)

CON(C)C(=O)[C@H](C)NC(=O)C1(C(F)(F)F)CC(c2cc(F)cc(F)c2)=NO1 (stereo partly shown)
activity level of plant damage (growth control rate), Digitaria sanguinalis [1, 4]: 9
activity level of plant damage (growth control rate), Lolium multiflorum ([1]; Dosage 240 g a.i./ha): 9
activity level of plant damage (growth control rate), Setaria viridis [1, 5]: 9

C=C(C)[C@]1(C(=O)N[C@@H](C)C(=O)NOC)CC(c2cc(F)cc(F)c2)=NO1
Avena fatua, activity level of plant damage (growth control rate) ([2]; Dosage 240 g a.i./ha): 9
Digitaria sanguinalis, activity level of plant damage (growth control rate) ([2]; Dosage 240 g a.i./ha): 9
Echinochloa crus-galli, activity level of plant damage (growth control rate) ([2]; Dosage 240 g a.i./ha): 8 (Level 8: growth control rate greater than or equal to 90% and less than 100%)

C=C(C)[C@]1(C(=O)N[C@@H](C)C(=O)N(C)OC)CC(c2cc(F)cc(Br)c2)=NO1
activity level of plant damage (growth control rate), Digitaria sanguinalis [1, 4]: 9
activity level of plant damage (growth control rate), Lolium multiflorum ([1]; Dosage 240 g a.i./ha): 8 (Level 8: growth control rate greater than or equal to 90% and less than 100%)
activity level of plant damage (growth control rate), Setaria viridis [1, 5]: 9

C=C(C)[C@]1(C(=O)N[C@H](C)C(=O)NOCC)CC(c2cc(F)cc(F)c2)=NO1
Avena fatua, activity level of plant damage (growth control rate) ([2]; Dosage 240 g a.i./ha): 6 (Level 6: growth control rate greater than or equal to 70% and less than 80%)

C=C[C@@]1(C(=O)N[C@@H](C)C(=O)NOC)CC(c2cc(F)cc(F)c2)=NO1
Avena fatua, activity level of plant damage (growth control rate) ([2]; Dosage 240 g a.i./ha): 9

C=C[C@]1(C(=O)N[C@@H](C)C(=O)NOCC(F)(F)F)CC(c2cc(F)cc(F)c2)=NO1
activity level of plant damage (growth control rate), Lolium multiflorum ([1]; Dosage 240 g a.i./ha): 7 (Level 7: growth control rate greater than or equal to 80% and less than 90%)

C=C(C)[C@]1(C(=O)N[C@@H](C)C(=O)NOCC(C)C)CC(c2cc(F)cc(F)c2)=NO1
Amaranthus retroflexus, activity level of plant damage (growth control rate) ([2]; Dosage 60 g a.i./ha): 5 (Level 5: growth control rate greater than or equal to 50% and less than 70%)
Digitaria sanguinalis, activity level of plant damage (growth control rate) ([2]; Dosage 60 g a.i./ha): 9
Echinochloa crus-galli, activity level of plant damage (growth control rate) ([2]; Dosage 60 g a.i./ha): 8 (Level 8: growth control rate greater than or equal to 90% and less than 100%)

C=C[C@]1(C(=O)N[C@@H](C)C(=O)NOC)CC(c2cc(F)cc(Br)c2)=NO1
activity level (growth control rate), Descurainia sophia ([1]; Descurainia sophia, sprayed immediately after sowing, 240 g a.i./ha, observed after 4 weeks in greenhouse): 7 (Level 7: growth control rate greater than or equal to 80% and less than 90%)
activity level (growth control rate), Lolium multiflorum [1, 6]: 9
activity level of plant damage (growth control rate), Zea mays [1, 6]: 0

CC[C@]1(C(=O)N[C@@H](C)C(=O)NOC)CC(c2cc(Br)cc(Br)c2)=NO1
activity level (growth control rate), Lolium multiflorum [1, 6]: 9
activity level of plant damage (growth control rate), Zea mays [1, 6]: 0

C=C[C@]1(C(=O)N[C@@H](C)C(=O)N(C)OC)CC(c2cc(F)cc(C#N)c2)=NO1
activity level of plant damage (growth control rate), Digitaria sanguinalis [1, 4]: 5 (Level 5: growth control rate greater than or equal to 50% and less than 70%)
activity level of plant damage (growth control rate), Lolium multiflorum ([1]; Dosage 240 g a.i./ha): 9
activity level of plant damage (growth control rate), Setaria viridis [1, 5]: 9

C=C[C@]1(C(=O)N[C@@H](C)C(=O)N(C)OC)CC(c2cc(C(F)(F)F)cc(C(F)(F)F)c2)=NO1
Avena fatua, activity level of plant damage (growth control rate) ([2]; Dosage 240 g a.i./ha): 9

C=C[C@]1(C(=O)N[C@@H](C)C(=O)N(C)OCC)CC(c2cc(F)cc(F)c2)=NO1
activity level of plant damage (growth control rate), Descurainia sophia [1, 3]: 8 (Level 8: growth control rate greater than or equal to 90% and less than 100%)
activity level of plant damage (growth control rate), Digitaria sanguinalis [1, 4]: 9
activity level of plant damage (growth control rate), Lolium multiflorum ([1]; Dosage 240 g a.i./ha): 9
activity level of plant damage (growth control rate), Setaria viridis [1, 5]: 9
